The test addresses GPR68/OGR1 (Homo sapiens, UniProt Q15743). Kind of test: CHEM1-OGR1 cells Fluo-8 calcium assay, acidified media pH 6.4. The conditions noted are these: read-out: GPR68; Table 5. The procedure:
Briefly, the methods were: On the day before the assay 20,000 cells per well of CHEM1-OGR1 cells were plated in 10% DMEM containing 10% FBS and 1% Pen/Strep into a 96 well plate. After 24 hours media was removed and cells were stained with 80 μL Fluo-8 calcium indicator dye according to manufacturer's protocol. After staining cells were treated with 20 uL of 4× concentration of test compounds. Using kinetic imaging in the Lionheart HCS fluorescence intensity was continuously measure at 10 frames per second, for 5 seconds before 100 μL of acidified media was added to the well resulting in a pH of 6.4. A ratio of fluorescence intensities prior to addition and at peak were calculated and averaged. The resulting data were platted and using a 4 parameter logistic regression EC50 (the concentration causing 50% effective inhibition) for each test compound was determined.

By UniProt entry, the sequences of proteins in these tests, tags left out.
UniProt Q15743, whole entry: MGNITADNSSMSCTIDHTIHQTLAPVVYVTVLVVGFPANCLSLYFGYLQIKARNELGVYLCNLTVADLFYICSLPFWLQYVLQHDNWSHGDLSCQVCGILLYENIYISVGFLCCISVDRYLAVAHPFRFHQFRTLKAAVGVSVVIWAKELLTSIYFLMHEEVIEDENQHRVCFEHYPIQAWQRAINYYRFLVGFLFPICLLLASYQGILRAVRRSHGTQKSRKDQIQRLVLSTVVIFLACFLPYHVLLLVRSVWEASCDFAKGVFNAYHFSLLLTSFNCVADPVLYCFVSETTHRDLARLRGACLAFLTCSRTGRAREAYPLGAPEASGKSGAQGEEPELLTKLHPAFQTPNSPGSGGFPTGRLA

In the case of `CN1C(=O)C2(NN=C(c3ccccc3)S2)c2ccccc21` (stereo not shown), the EC50 is 810 nM.
